The source of these data is PMC2866048 (Journal of molecular biology, 2010).

B1: N-GST fused DrABD (drebrin 233-317) (domain or fragment)
chain: EEHRRKQQSLEAEEAKRRLKEQSIFGDQRDEEEESQMKKSESEVEEAAAIIAQRPDNPREFFRQQERVASASGGSCDAPAPAPFN
B2: N-GST fused DrABD300 (drebrin 233-300) (domain or fragment)
chain: EEHRRKQQSLEAEEAKRRLKEQSIFGDQRDEEEESQMKKSESEVEEAAAIIAQRPDNPREFFRQQERV
B3: DrABD300 mutant K238C (domain or fragment)
chain: GSEEHRRCQQSLEAEEAKRRLKEQSIFGDQRDEEEESQMKKSESEVEEAAAIIAQRPDNPREFFRQQERV
B4: DrABD300 mutant K271C (domain or fragment)
chain: B3 chain with C8K, K41C
B5: DrABD300 mutant K248C (domain or fragment)
chain: B3 chain with C8K, K18C
B6: DrABD300 mutant K252C (domain or fragment)
chain: B3 chain with C8K, K22C
B7: DrABD300 mutant K270C (domain or fragment)
chain: B3 chain with C8K, K40C

Numbering of substitutions follows the chain as printed. Names and notes keep the numbering of the source.

By Kd is commonly meant the concentration at which binding is half-saturated. A higher Kd goes with weaker binding. As usually defined, the stoichiometry N is a count of units in the complex or per binding partner.

In the first experiment the target is Rabbit skeletal actin, polymerised (F-actin) (rabbit, UniProt P68135 1-377). Nature of the experiment: co-sedimentation.
Regarding B1, the dissociation constant Kd was determined as 6.6 ± 0.4 µM and the “stoichiometry N” value worked out at 1.6 actin protomers per DrABD.

For the molecule B2, binding was characterised by a dissociation constant (Kd) of 7.6 ± 0.6 µM and the “stoichiometry N” value is 1.6 actin protomers per DrABD.

In another experiment the target is Yeast actin mutant D51C/C374S, polymerised (F-actin) (yeast, UniProt P60010 1-375, D51C | C374S). Nature of the experiment: cross-linking.
With B3, the binding result is “binds”.

B4: the binding result is recorded as “binds”.

For the molecule B5, the binding result is “binds”.

For the molecule B6, the binding result was “binds”.

Take B7: the binding result was “binds”.
